{
  "source": "patent US12076313B2",
  "about": "(CELISTA PHARMACEUTICALS LLC, priority 2020, dated 2024)",
  "origin": "cited, not measured here",
  "tested_on": "interferons (IFNs)",
  "conditions": "treated mice; cited from earlier work",
  "data": [
    {"smiles": "CC(C)Cn1cnc2c(N)nc3ccccc3c21", "note": "[Imiquimod, 1-(2-methylpropyl)-1H-imidazo[4,5-c]quinolin-4-amine]", "values": [
      {"measurement": "levels of circulating IFN activity", "result": "≤ 2,000 U/ml"}
    ]}
  ]
}
